Laboratory results reported in PMC5995905, “Confirmation of high-throughput screening data and novel mechanistic insights into VDR-xenobiotic interactions by orthogonal assays” (Scientific Reports, 2018).
Counter-ions that a name gives are not always drawn. Like-named read-outs stand apart in the source and are kept apart here.

Experiments:
[1] = target: T1, VDR:RXR, VDR:SRC-1 and VDR:NCoR interactions (Homo sapiens, UniProt P11473); test: Mammalian 2-hybrid assay, summary in words of VDR coregulator interactions; type: cell-based; conditions: with or without co-transfected full length RXR or SRC-1; for pattern of VDR:coregulator interaction facilitated by the ligand: agonists; for pattern of change of 1,25D3 induced VDR:coregulator interaction: antagonists
T1 sequence (P11473 1-427): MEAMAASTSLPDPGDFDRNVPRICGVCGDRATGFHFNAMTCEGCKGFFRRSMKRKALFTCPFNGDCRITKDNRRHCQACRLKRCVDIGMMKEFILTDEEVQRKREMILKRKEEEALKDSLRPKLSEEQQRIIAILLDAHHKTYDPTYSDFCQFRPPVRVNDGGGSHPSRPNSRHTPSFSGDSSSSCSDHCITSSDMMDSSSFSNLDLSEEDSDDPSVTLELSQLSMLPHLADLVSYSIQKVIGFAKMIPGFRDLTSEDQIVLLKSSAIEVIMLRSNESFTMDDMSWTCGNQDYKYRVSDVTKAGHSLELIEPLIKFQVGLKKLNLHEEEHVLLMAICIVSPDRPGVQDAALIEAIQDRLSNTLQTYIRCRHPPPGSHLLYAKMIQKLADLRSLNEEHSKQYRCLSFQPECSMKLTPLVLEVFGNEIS

VDR:NCoR = target: T2, VDR:NCoR (Homo sapiens, UniProt P11473); test: Mammalian 2-hybrid assay, recruitment of corepressor NCoR by VDR, Cos7 cells; conditions: for Fold Change (pMNCoR + EpSG5): antagonists, -RXR, normalized to DMSO set to 1, conc. in Fig 6: K dicyanoaurate 6, proscillaridin, aristolochic acid 12, thiram 1 μM
T2 sequence (P11473 1-427): T1 sequence (P11473 1-427)

Compound	pattern of VDR:coregulator interaction facilitated by the ligand [1]	Fold Change (pMNCoR + RXRα) (VDR:NCoR)	also measured
CCc1cc(Cc2cc(CC)cc(C(C)(C)C)c2O)c(O)c(C(C)(C)C)c1 [2,2′-methylenebis(6-tert-butyl-4-ethylphenol)]	Interaction between VDR:RXR only in the absence of full length SRC-1	–	–
Cc1cc(Cc2cc(C)cc(C(C)(C)C)c2O)c(O)c(C(C)(C)C)c1 [2,2′-methylenebis(6-tert-butyl-4-methylphenol)]	Interaction between VDR:RXR and VDR:SRC-1 both in the presence and absence of co-transfected full length RXR and SRC-1	–	–
O=S(=O)(O)c1ccc2ccc(S(=O)(=O)O)cc2c1 [2,7 Naphthalene disulfonic acid]	did not facilitate VDR:RXR or VDR:SRC-1 interactions under any condition	–	–
Cc1cc(=O)oc2cc(N(C)C)ccc12 [7-(Dimethylamino)-4-methylcoumarin]	did not facilitate VDR:RXR or VDR:SRC-1 interactions under any condition	–	–
Cl.Nc1c2ccccc2nc2ccccc12 [9 Aminoacridine monohydrochloride]	–	–	Fold Change (pMNCoR + RXRα) (VDR:NCoR; agonists, +RXR, fold induction compared to DMSO, 9 aminoacridine at 50 μM in Fig 5): 53.1 fold
COc1cccc2c1cc([N+](=O)[O-])c1c(C(=O)O)cc3c(c12)OCO3 [Aristolochic acid]	–	11.4	–
[Cl][Cd][Cl] [Cadmium chloride]	–	0.5	–
C=C1/C(=C\C=C2/CCC[C@]3(C)[C@@H]([C@H](C)/C=C/[C@@H](O)C4CC4)CC[C@@H]23)C[C@@H](O)C[C@@H]1O [Calcipotriol, reference compound]	Interaction between VDR:RXR and VDR:SRC-1 both in the presence and absence of co-transfected full length RXR and SRC-1	–	–
CC(C)C[C@H](NC(=O)[C@H](CCc1ccccc1)NC(=O)CN1CCOCC1)C(=O)N[C@@H](Cc1ccccc1)C(=O)N[C@@H](CC(C)C)C(=O)[C@@]1(C)CO1 [Carfizomib, reference compound]	–	–	pattern of change of 1,25D3 induced VDR:coregulator interaction [1]: enhanced the interaction between VDR:SRC-1 only in the presence of co-transfected RXR; Fold Change (pMNCoR + EpSG5) (VDR:NCoR): 1.1 fold
O=C(O)CCCc1ccc(N(CCCl)CCCl)cc1 [Chlorambucil, reference compound]	–	1	–
O=C1C(Cl)=C(Cl)C(=O)c2ccccc21 [Dichlone]	–	1	–
O=C([O-])c1ccccc1-c1c2ccc(=O)cc-2oc2cc([O-])ccc12.[Na+].[Na+] [Fluorescein sodium, reference compound]	–	–	Fold Change (pMNCoR + EpSG5) (VDR:NCoR): 1.2 fold
Cc1cc(O)c2ccccc2c1O [Menadiol, reference compound]	–	–	pattern of change of 1,25D3 induced VDR:coregulator interaction [1]: selectively inhibit VDR:RXR interactions only in the absence of full length wild type SRC-1
COC(=O)c1nc(Cl)c(Cl)nc1N [Methyl 3-amino-5,6-dichloropyrazine-2-carboxylate]	Interaction between VDR:SRC-1 only in the presence of co-transfected RXR	–	–
Nc1ccc2cc3ccc(N)cc3nc2c1 [Proflavine hydrochloride]	–	–	Fold Change (pMNCoR + EpSG5) (VDR:NCoR): 1.3 fold
C[C@@H]1O[C@@H](O[C@@H]2C=C3CC[C@@H]4[C@H](CC[C@]5(C)[C@@H](c6ccc(=O)oc6)CC[C@]45O)[C@@]3(C)CC2)[C@H](O)[C@H](O)[C@H]1O [Proscillaridin, reference compound]	–	1.6	–
C[C@]1(Cn2ccnn2)[C@H](C(=O)O)N2C(=O)C[C@H]2S1(=O)=O [Tazobactam sodium, reference compound]	–	–	Fold Change (pMNCoR + EpSG5) (VDR:NCoR): 1.7 fold
CN(C)C(=S)SSC(=S)N(C)C [Thiram]	–	1	–
Nc1nc(N)c2nc(-c3ccccc3)c(N)nc2n1 [Triamterene, reference compound]	Interaction between VDR:RXR and VDR:SRC-1 both in the presence and absence of co-transfected full length RXR and SRC-1	–	–
Cadmium reference solution	–	0.8	–
